From patent US9527851B2, “Pyrrole six-membered heteroaryl ring derivative, preparation method thereof, and medicinal uses thereof” (Jiangsu Hengrui Medicine Co., Ltd., priority 2011, dated 2016)

Chains of the proteins cited; added tags and fusions are not shown. Lines headed by an entry give the natural chain unless they say otherwise; changes in a name come on top.
UniProt P23458: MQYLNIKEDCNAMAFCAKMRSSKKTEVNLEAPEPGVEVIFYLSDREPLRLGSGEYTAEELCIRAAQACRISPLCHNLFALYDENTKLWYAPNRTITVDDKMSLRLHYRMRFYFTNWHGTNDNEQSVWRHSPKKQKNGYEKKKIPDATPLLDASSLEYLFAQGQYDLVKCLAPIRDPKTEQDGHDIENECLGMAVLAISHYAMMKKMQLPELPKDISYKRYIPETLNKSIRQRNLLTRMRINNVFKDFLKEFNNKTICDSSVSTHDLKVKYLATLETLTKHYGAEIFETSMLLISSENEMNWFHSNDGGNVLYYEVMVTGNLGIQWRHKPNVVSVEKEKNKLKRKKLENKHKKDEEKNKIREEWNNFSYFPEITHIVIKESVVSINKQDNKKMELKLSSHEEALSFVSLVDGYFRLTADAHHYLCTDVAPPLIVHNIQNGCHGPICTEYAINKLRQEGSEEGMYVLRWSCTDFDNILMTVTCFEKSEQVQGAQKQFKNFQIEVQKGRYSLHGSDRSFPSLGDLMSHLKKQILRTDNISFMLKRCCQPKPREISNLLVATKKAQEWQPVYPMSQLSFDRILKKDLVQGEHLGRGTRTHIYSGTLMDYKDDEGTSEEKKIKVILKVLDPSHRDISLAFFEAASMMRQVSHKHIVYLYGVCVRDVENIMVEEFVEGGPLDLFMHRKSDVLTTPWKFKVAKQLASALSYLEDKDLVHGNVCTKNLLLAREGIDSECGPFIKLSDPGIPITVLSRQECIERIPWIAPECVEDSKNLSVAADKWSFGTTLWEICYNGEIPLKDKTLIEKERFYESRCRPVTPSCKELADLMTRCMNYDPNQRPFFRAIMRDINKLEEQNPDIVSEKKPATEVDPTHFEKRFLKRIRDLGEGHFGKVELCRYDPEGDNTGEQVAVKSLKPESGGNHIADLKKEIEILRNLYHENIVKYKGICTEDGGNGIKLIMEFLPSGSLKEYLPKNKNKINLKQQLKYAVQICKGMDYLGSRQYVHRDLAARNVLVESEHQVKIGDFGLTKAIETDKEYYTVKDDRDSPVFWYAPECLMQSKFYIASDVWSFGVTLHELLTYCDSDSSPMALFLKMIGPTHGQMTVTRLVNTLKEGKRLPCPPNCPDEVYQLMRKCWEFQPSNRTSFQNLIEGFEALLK

target: JAK1 kinase (Homo sapiens (Human), UniProt P23458); assay: Assay for inhibiting JAK1 kinase (in vitro kinase assay, HRP anti-phosphotyrosine antibody/TMB absorbance); assay type: biochemical; conditions: 20 μM ATP, 50 minutes at room temperature; read-out: IC50 (JAK1/Bio)
Protocol: In vitro activity of compounds of the present invention for inhibiting JAK1 kinase was determined by the following method.
IC50 values of test compounds was calculated from the data of the test compounds in inhibiting the activity of JAK1 kinase at different concentrations.

Point of comparison: `Cc1nsc(N2C[C@H]3C[C@H](N(C)c4ncnc5[nH]ccc45)C[C@H]3C2)n1` [Example 65, N-methyl-N-((3aR,5S,6aS)-2-(3-methyl-1,2,4-thiadiazol-5-yl)octahydrocyclopenta[c]pyrrol-5-yl)-7H-pyrrolo[2,3-d]pyrimidin-4-amine], IC50 50 nM. Against it:
- CN(c1ncnc2[nH]ccc12)[C@H]1C[C@H]2CNC(=O)C[C@H]2C1 [Example 40, (4aR,6R,7aR)-6-(Methyl(7H-pyrrolo[2,3-d]pyrimidin-4-yl)amino) hexahydro-1H-cyclopenta[c]pyridin-3(2H)-one] — 2-fold higher, 98 nM
- CN(c1ncnc2[nH]ccc12)[C@@H]1C[C@H]2CNC(=O)C[C@H]2C1 [Example 41, (4aR,6S,7aR)-6-(Methyl(7H-pyrrolo[2,3-d]pyrimidin-4-yl)amino) hexahydro-1H-cyclopenta[c]pyridin-3(2H)-one] — 1.6-fold higher, 80 nM
- CN(c1ncnc2[nH]ccc12)[C@H]1C[C@H]2CNC(=O)C[C@H]2C1 [Example 147, (4aR,6R,7aR)-6-(methyl(7H-pyrrolo[2,3-d]pyrimidin-4-yl)amino)hexahydro-1H-cyclopenta[c]pyridin-3(2H)-one] — 50-fold lower, 1 nM
